pKi: −log10 of the molar value.
Target: Urokinase-type plasminogen activator (Homo sapiens, UniProt P00749)

| Compound | pKi |
| --- | --- |
| N#Cc1ccc2cc(NC(=O)c3ccccc3)ccc2c1 | 5.72 |
| N=C(N)c1ccc2cc(C(=O)Nc3cccc(OC4CCCC4)c3)ccc2c1 | 7.55 |
| [H]/N=C(\N)c1ccc2cc(C(=O)Nc3ccc(CN)cc3)ccc2c1 | 7.40 |
| N=C(N)c1ccc2cc(C(=O)Cc3ccccc3)ccc2c1 | 5.10 |

— ChEMBL document CHEMBL1148377, “Identification of novel binding interactions in the development of potent, selective 2-naphthamidine inhibitors of urokinase. Synthesis, structural analysis, and SAR of N-phenyl amide 6-substitution” (J Med Chem, 2004)
